From patent publication US11331299B2, “Medicinal use of serrulatane diterpenes” (The University of Sydney, priority 2016, dated 2022)

Sequences of proteins named here, by UniProt entry; tags and fusion partners are left off. A change or cut given only in a name is not applied to a line headed by its entry. Residues count along the entry.
UniProt P21452, whole entry: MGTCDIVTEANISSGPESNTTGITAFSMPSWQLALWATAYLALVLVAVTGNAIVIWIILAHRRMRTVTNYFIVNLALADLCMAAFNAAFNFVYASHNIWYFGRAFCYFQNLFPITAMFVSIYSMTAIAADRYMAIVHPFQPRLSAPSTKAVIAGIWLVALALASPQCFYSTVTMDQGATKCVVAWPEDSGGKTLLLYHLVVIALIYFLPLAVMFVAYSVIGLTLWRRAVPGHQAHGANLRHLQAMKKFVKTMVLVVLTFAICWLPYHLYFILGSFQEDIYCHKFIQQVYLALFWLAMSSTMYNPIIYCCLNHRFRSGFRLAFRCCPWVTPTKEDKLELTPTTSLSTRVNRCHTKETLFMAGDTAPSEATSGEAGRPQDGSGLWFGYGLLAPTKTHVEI
UniProt P42574, 29-277: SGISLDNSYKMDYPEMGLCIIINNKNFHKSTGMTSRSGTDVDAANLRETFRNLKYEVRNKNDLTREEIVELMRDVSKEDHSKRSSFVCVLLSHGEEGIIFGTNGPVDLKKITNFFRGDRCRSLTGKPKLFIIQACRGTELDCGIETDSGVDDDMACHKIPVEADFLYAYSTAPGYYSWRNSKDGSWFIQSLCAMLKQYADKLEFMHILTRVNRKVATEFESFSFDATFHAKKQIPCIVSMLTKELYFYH
UniProt P43116: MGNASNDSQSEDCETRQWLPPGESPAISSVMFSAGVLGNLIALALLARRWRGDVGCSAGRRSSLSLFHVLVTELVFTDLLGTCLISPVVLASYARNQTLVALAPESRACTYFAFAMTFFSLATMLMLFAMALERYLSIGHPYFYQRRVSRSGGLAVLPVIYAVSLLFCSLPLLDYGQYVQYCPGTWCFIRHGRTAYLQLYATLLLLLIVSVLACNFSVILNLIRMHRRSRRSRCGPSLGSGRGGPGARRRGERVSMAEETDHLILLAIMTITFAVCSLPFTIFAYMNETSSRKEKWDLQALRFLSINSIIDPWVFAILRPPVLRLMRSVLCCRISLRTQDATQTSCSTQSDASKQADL
UniProt Q9UPP1: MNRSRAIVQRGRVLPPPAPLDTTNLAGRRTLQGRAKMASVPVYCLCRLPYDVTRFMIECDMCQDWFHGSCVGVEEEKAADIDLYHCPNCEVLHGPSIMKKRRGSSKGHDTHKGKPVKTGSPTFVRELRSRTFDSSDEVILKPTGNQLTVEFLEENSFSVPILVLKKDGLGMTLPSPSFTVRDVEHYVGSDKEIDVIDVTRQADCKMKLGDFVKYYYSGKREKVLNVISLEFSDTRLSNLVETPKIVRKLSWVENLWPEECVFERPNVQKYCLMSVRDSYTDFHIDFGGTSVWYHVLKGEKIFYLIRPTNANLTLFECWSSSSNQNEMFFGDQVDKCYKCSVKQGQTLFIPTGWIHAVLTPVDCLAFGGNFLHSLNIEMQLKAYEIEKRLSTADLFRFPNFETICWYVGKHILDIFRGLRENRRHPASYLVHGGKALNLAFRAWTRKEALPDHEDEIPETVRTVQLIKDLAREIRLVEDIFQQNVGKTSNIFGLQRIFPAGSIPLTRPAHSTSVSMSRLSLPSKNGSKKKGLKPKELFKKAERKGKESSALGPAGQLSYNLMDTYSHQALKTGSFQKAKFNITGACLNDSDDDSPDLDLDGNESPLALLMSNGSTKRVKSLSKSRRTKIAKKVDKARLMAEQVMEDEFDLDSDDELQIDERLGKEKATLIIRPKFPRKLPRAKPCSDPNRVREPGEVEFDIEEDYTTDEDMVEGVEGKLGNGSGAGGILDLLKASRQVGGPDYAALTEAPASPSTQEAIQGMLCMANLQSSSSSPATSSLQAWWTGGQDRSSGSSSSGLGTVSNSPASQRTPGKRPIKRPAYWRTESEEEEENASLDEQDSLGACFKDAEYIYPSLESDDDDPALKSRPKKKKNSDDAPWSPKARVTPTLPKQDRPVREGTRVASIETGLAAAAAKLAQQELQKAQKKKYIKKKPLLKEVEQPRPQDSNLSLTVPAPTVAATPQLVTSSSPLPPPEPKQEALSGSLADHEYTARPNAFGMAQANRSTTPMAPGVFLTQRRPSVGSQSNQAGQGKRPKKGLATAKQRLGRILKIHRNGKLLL

How the values were obtained:
[1] = target: receptors (Bioprint panel) (Homo sapiens, UniProt P21452); assay: biochemical
[2] = target: enzymes (Bioprint panel) (Homo sapiens, UniProt P42574); assay: biochemical
[3] = target: receptors (Bioprint panel) (Homo sapiens, UniProt P43116); details: read-out: Reference Compound IC50
[4] = target: PHF8(h) (Homo sapiens, UniProt Q9UPP1); assay: Epigenetic enzyme assay, Demethylases (KDMs); type: biochemical

SMILES: CCCC[C@H](NC(=O)[C@H](CC(C)C)NC(=O)CNC(=O)[C@@H](NC(=O)[C@H](Cc1ccccc1)NC(=O)[C@H](CO)NC(=O)[C@@H](N)CC(=O)O)C(C)C)C(N)=O [[Nleu10]-NKA (4-10)]
- IC50 [1]: 2.9 nM

SMILES: CC(=O)N[C@@H](CC(=O)O)C(=O)N[C@@H](CCC(=O)O)C(=O)N[C@H](C(=O)N[C@H](C=O)CC(=O)O)C(C)C [Ac-DEVD-CHO]
- IC50 [2]: 2.9 nM

SMILES: CCCCC[C@H](O)/C=C/[C@H]1[C@H](O)CC(=O)[C@@H]1C/C=C\CCCC(=O)O [PGE2]
- IC50 [3]: 2.7 nM

SMILES: CN(C)NC(=O)CCC(=O)O [Daminozide, reference compound]
- IC50 [4]: 280 nM
